Source: PubChem BioAssay AID485346 (Sanford-Burnham Center for Chemical Genomics, 2010)
This is a selection; strong and weak results do not stand in their true shares. Activity calls are given as the source filed them.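 Rule for the calls: active = inhibition of at least 50% at 8 µM in the primary screen; inactive = the rest.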

Chains of the proteins cited; added tags and fusions are not shown.
UniProt O15151, whole entry, looked up: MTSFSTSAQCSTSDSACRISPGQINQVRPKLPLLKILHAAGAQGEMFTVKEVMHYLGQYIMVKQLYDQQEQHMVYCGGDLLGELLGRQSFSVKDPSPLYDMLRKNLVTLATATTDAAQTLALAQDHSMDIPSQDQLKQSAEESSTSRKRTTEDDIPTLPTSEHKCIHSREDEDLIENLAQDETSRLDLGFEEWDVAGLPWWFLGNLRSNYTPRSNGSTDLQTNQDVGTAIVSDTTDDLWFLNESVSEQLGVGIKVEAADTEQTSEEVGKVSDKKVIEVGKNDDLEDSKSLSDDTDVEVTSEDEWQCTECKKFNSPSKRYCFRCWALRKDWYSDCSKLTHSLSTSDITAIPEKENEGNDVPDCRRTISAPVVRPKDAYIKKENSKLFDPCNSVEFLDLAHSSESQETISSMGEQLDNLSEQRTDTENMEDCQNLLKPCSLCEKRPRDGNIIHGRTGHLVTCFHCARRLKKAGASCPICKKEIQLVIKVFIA
UniProt Q00987, whole entry, looked up: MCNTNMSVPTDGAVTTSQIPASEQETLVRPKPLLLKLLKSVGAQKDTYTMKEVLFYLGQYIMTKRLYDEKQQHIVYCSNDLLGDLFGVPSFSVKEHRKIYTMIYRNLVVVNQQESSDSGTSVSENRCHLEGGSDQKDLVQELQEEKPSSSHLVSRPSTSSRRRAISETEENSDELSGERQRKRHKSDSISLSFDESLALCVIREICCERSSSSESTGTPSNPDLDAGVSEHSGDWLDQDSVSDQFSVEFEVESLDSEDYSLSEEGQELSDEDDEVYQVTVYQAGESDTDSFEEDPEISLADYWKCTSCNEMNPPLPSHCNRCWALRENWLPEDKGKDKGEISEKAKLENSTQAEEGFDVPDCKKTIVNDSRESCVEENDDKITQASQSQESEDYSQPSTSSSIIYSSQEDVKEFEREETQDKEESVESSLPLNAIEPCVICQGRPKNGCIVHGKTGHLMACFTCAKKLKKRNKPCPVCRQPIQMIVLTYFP

Target: Protein Mdm4 (Homo sapiens) + E3 ubiquitin-protein ligase Mdm2 (Homo sapiens) (UniProt O15151+Q00987)
Assay: inhibitors of human Mdm2-MdmX association, primary screen, cell-based, luminescence, split luciferase, SaOS-2, uHTS (AID 485346)
Settings: SaOS-2 split-luciferase Mdm2/MdmX complementation, at 8 µM, stronger effect = higher value

Structure (SMILES) | inhibition
CCC(=O)N(c1ccccc1)C1(COC)CCN(CCn2nnn(CC)c2=O)CC1 | inactive: 25.5%
CCC(=O)N(c1ccccc1)C1(COC)CCN(CCc2cccs2)CC1 | inactive: 9.74%
